The list shows a part of the results.
What follows are compounds tested on A. baumannii ATCC 17978 (assay: relative growth (fraction of control); higher = less inhibition). Conditions: 50 µM.

SMILES	relative growth
COC(=O)/C=C1\N[C@H]2CCCC[C@@H]2NC1=O	0.939
CN(C)Cc1c(C(=O)N/N=C/c2ccncc2)nnn1-c1nonc1N	1.02
C[C@@H]1CN([C@H](C)CO)S(=O)(=O)c2ccc(C#Cc3ccc(F)cc3)cc2O[C@@H]1CN(C)S(=O)(=O)c1ccc(F)cc1	1.2
CN(CCOc1ccc(CC2SC(=O)NC2=O)cc1)c1ccccn1.O=C(O)/C=C\C(=O)O (configuration not stated)	1.3
COc1ccccc1CN1C(=O)c2ccccc2[C@](Cc2ccccc2I)(C(=O)NC2CC2)[C@@H]1c1ccc(CO)cc1	0.779
O=C(Nc1ccccc1)N1c2ccccc2CCc2ccccc21	1.01
O=C(C[C@@H]1CC[C@@H]2[C@H](COC[C@@H](O)CN2C(=O)Nc2cccc(Cl)c2)O1)NCCCN1CCOCC1	0.903
Cc1ccc(-c2ccc(OC(=O)c3ccccc3F)cc2)cc1	1.11
O=C(C[C@@H]1C[C@H]2c3cc(NC(=O)c4ccc5c(c4)OCO5)ccc3O[C@H]2[C@H](CO)O1)NCCc1ccccc1	1.15
CCCn1c(N)nc2c1c(=O)n(C)c(=O)n2C	0.96
COc1cccc(-c2ccc3c(c2)O[C@H](CN(C)C(=O)C2CC2)[C@H](C)CN([C@@H](C)CO)S3(=O)=O)c1	0.81
O=C(N[C@H]1CC=CC[C@H](CC(=O)N(CCO)Cc2ccccc2)C(=O)NCC(c2ccccc2)OC1=O)OCC1c2ccccc2-c2ccccc21 (some centres not stated)	1.16
O=c1[nH]/c(=C/c2ccco2)c(=O)[nH]/c1=C\c1ccco1	0.824
Cc1c(N2CCCC2)cc2c(c1-n1cccc1)C(C)(C)CC2(C)C	0.99
NCC[C@@H]1CC[C@@H](NC(=O)C2CCCCC2)[C@@H](CO)O1	1.01
CO[C@H](CN(C)S(=O)(=O)c1cccc(Cl)c1)[C@@H](C)CN([C@@H](C)CO)S(=O)(=O)c1cccc(Cl)c1	0.895
Fc1ccc(-c2nc3c4ccccc4c4ccccc4c3[nH]2)cc1	1.08
O=C(C[C@@H]1CC[C@@H](NS(=O)(=O)c2ccccc2)[C@H](CO)O1)NCc1ccncn1	1.02
Br.CN1CCC[C@@H]1Cc1c[nH]c2ccc(CCS(=O)(=O)c3ccccc3)cc12	1.07
C=CCC[C@H](Cc1ccc(F)cc1)C(=O)OC[C@H]1CCCN1C(=O)[C@H](CC=C)CC(=O)N(CCO)Cc1ccccc1	1.12
C[C@H]1CN([C@@H](C)CO)S(=O)(=O)c2ccc(C#Cc3ccncc3)cc2O[C@H]1CN(C)C(=O)C1CCC1	1.01
O=C(C[C@@H]1CC[C@H]2NC[C@H](O)COC[C@@H]2O1)NCCN1CCCC1	0.993

SMILES	relative growth
CCCc1cc(=O)nc(SCC(N)=O)[nH]1	0.864
O=C(OCc1ccco1)c1ccc(-c2ccc(Cl)cc2)s1	0.964
Cn1cnc(S(=O)(=O)N2C[C@@H](O)COC[C@@H]3O[C@H](CC(=O)N4CCN(c5ccccc5)CC4)CC[C@H]32)c1	1.07
O=C(C[C@H]1C=C[C@H](NC(=O)c2ccncc2)[C@@H](CO)O1)NCc1ccncn1	1.17
CCC[C@H](NC(=O)[C@@H]1[C@H]2CCC[C@H]2CN1C(=O)[C@@H](NC(=O)[C@@H](NC(=O)c1cnccn1)C1CCCCC1)C(C)(C)C)C(=O)C(=O)NC1CC1	1.4
O=c1c(O[C@@H]2O[C@H](CO)[C@@H](O)[C@H](O)[C@@H]2O[C@H]2OC[C@](O)(CO)[C@H]2O)c(-c2ccc(O)c(O)c2)oc2cc(O)cc(O)c12	1.05
CCc1cccc2c3c([nH]c12)C(CC)(CC(=O)O)OCC3 (configuration not stated)	1.19
Cc1noc(NS(=O)(=O)c2ccc(N)cc2)c1C	0.965
NC(CSSCC(N)C(=O)O)C(=O)O (configuration not stated)	0.837
OCCNC(=S)c1ccccc1	1.15
CCCCC(=O)O[C@]1(C(=O)CO)CC[C@H]2[C@@H]3CCC4=CC(=O)CC[C@]4(C)[C@H]3[C@@H](O)C[C@@]21C	1.08
Cc1ccc(CNc2ccccn2)o1	0.923
CCCCc1cc(CCCC)n2nc(-c3ccccc3)cc2n1	1.01
CN1CCN(C(=O)C[C@@H]2C=C[C@H](NC(=O)Cc3ccccn3)[C@H](CO)O2)CC1	1.11
CCCNC(=O)N1C[C@H](O)COC[C@@H]2O[C@@H](CC(=O)NCc3ccncn3)CC[C@H]21	0.931
COC(=O)[C@@H](N)Cc1ccc(-n2cc(CCC(=O)NO)nn2)cc1	0.523
CC(=O)O[C@H]1C[C@@H](OC(C)=O)C(C)(C)C2C[C@@H](O)[C@]3(C)C(CC[C@@]4(C)[C@H](c5ccoc5)OC(=O)[C@H]5O[C@]543)[C@]21C (some centres not stated)	1.16
C=C[C@H]1CCC=C2C(=O)CCC[C@@H]21	0.877
O=C(Nc1cc(C(F)(F)F)ccc1-n1cnc2ccccc21)c1ccc(S(=O)(=O)N2CCCC2)cc1	0.976
COc1ccc(S(=O)(=O)N(C)C[C@@H]2Oc3ccc(NC(=O)Nc4cccc(C(F)(F)F)c4)cc3CC(=O)N([C@@H](C)CO)C[C@@H]2C)cc1Cl	0.969
NCc1cn(Cc2ccc(Cl)c(Cl)c2)cn1	0.92
CNC(=O)c1cccc(NC(=S)NC)c1	1.03

SMILES	relative growth
Cn1c2c(c(=S)[nH]c1=O)CCC2	1.07
C[C@@H]1CC2C3CCC4=CC(=O)C=C[C@]4(C)[C@@]3(F)[C@@H](O)C[C@]2(C)[C@H]1C(=O)CO (some centres not stated)	0.907
CN1C(=O)N[C@@H]2c3ccccc3O[C@@]1(COC(=O)NCCCCCC(=O)NO)[C@@H]2COC(=O)c1ccccc1	0.956
CN1C(=O)c2cc(NC(=O)C3CCOCC3)ccc2OC[C@@H]2O[C@H](CC(=O)NCc3ccc4c(c3)OCO4)CC[C@@H]21	1.03
Cc1ccc(S(=O)(=O)N2C[C@H](O)COC[C@@H]3O[C@H](CC(=O)NCCN4CCCCC4)CC[C@H]32)cc1	0.917
COc1ccc(CCN2C(=O)[C@@]3(Cc4ccccc42)c2ccccc2C(=O)N(Cc2ccccc2)[C@H]3c2ccc(COC(=O)NCCCCCC(=O)NO)cc2)cc1	0.9
CCc1cc(C(N)=O)c(N)s1	0.959
O=C(Nc1nn[nH]n1)C1CCCCC1	0.99
COc1ccc(S(=O)(=O)N[C@@H]2CC[C@@H](CCNC(=O)CN3CCOCC3)O[C@H]2CO)cc1	1.24
Cc1ccccc1N1C(=O)c2cc(S(N)(=O)=O)c(Cl)cc2NC1C (configuration not stated)	1.13
O=C(C[C@H]1C=C[C@@H](NC(=O)C2CC2)[C@@H](CO)O1)NCCCN1CCOCC1	1.19
O=C(O)CNC(=O)CN1C(=O)c2ccccc2C1=O	0.963
C[C@H](CCC(=O)O)[C@H]1CCC2C3C(CC[C@@]21C)[C@@]1(C)CC[C@@H](O)C[C@H]1C[C@H]3O (some centres not stated)	1.02
CC(C)OC(=O)c1cn(Cc2c(F)cccc2F)c2sc(-c3ccc(NC(=O)C(C)C)cc3)c(CN(C)Cc3ccccc3)c2c1=O	0.972
Cc1cc(-n2c(=O)[nH]c(=O)n(C)c2=O)ccc1Oc1ccc(SC(F)(F)F)cc1	1.23
O=C(O)C[C@@H]1C=C[C@H](NC(=O)c2ccncc2)[C@@H](CO)O1	0.911
O=C(C[C@@H]1C=C[C@@H](NC(=O)CN2CCOCC2)[C@@H](CO)O1)NCCc1ccccc1	0.907
Nc1nc(=O)c2nc(Br)n([C@H]3O[C@H]4CO[PH](O)(O)O[C@@H]4[C@@H]3O)c2[nH]1	0.944
CC1(C)C[C@@](CCN)(Cc2ccccc2)CCO1	1.02
Cc1ccc(S(=O)(=O)N[C@H]2CC[C@H](CC(=O)N3CCC(Cc4ccccc4)CC3)O[C@@H]2CO)cc1	0.849
Cn1c(=O)sn(-c2ccccc2)c1=O	1.06
O=C(C[C@@H]1CC[C@@H]2[C@H](COC[C@H](O)CN2C(=O)c2ccccc2F)O1)N1CCN(c2ccccc2)CC1	0.972

SMILES	relative growth
CC(=O)N(O)CCC[C@H]1NC(=O)CNC(=O)CNC(=O)CNC(=O)[C@@H](CCCN(O)C(C)=O)NC(=O)[C@@H](CCCN(O)C(C)=O)NC1=O	1.12
COc1ccc(-c2coc3c(OC)c(OC)cc(O)c3c2=O)cc1	0.908
COc1cccc(-c2cn(CC[C@H]3CC[C@@H](NS(=O)(=O)c4ccccc4Cl)[C@@H](CO)O3)nn2)c1	0.984
C[C@H]1[C@H]2CCC3C4CC=C5C[C@@H](N(C)C)CC[C@]5(C)C4CC[C@@]32CN1C (some centres not stated)	1.18
O=C(C[C@@H]1CC[C@@H](NC(=O)Cc2ccccn2)[C@H](CO)O1)NCCCN1CCOCC1	1.04
CC(C)(C)NC[C@H](O)COc1ccccc1C1CCCC1.O=S(=O)(O)O	0.967
C[C@H](CO)N1C[C@H](C)[C@H](CN(C)C(=O)c2cnccn2)Oc2cc(Br)ccc2S1(=O)=O	1.01
COCC(=O)N[C@H]1C=C[C@H](CC(=O)N2CCCCC2)O[C@@H]1CO	0.995
CC[C@@H]1CN(C(=O)c2ccccn2)N1	1.01
COc1cccc(S(=O)(=O)Nc2ccc3c(c2)[C@H]2C[C@H](CC(=O)N4CCCCC4)O[C@H](CO)[C@H]2O3)c1	0.903
CCC(CC)c1ccc(O)cc1	0.813
Cl.NC(Cc1ccc(Cl)cc1)C(=O)O (racemic)	1.24
CN(C)/C=N/C(=S)N1CCOCC1	1
Cc1c(C)c(C)c(CN)c(C)c1C	1.01
COc1ccc2c(-c3ccc(Cl)cc3)c(C)oc2c1	1.08
CC(C)(C)c1c(C(C)(C)C)c1=O	0.902
COc1cccc(NC(=O)N2C[C@@H](O)COC[C@H]3O[C@H](CC(=O)NCCCN4CCOCC4)CC[C@@H]32)c1	0.927
Cc1ccc(S(=O)(=O)NCC[C@H]2CC[C@@H](NS(=O)(=O)c3ccccc3Cl)[C@H](CO)O2)cc1	0.938
CC(=O)Nc1ccc(O)cc1	1.01
O=C(C[C@@H]1CC[C@H]2[C@@H](COC[C@@H](O)CN2C(=O)Nc2cccc(F)c2)O1)NCCCN1CCOCC1	0.975
CC(=O)Oc1c(C)c(C)c2c(c1C)CCC(C)(CCCC(C)CCCC(C)CCCC(C)C)O2 (stereo not drawn) [alpha-TOCHOPHERYL ACETATE [4mM]]	1.37
